The results in this text go back to paper PMC9604285, “Rat Group IIA Secreted Phospholipase A2 Binds to Cytochrome c Oxidase and Inhibits Its Activity: A Possible Episode in the Development of Alzheimer’s Disease” (International Journal of Molecular Sciences, 2022).

For assay [1], the target named is subunit II of cytochrome c oxidase (CCOX-II) (porcine (endogenous in cerebral cortex)) (UniProt P50667). The assay is described as follows: cross-linking.
The target of assay [2] is T1, subunit II of cytochrome c oxidase (CCOX-II) (porcine (endogenous in cerebral cortex), UniProt P50667 1-228).
T1 construct: also called CCOX subunit II; 25 kDa receptor
Description: cross-linking. Particulars: one partner purified.

The IC50 is the concentration needed to halve the response being measured. As to “rGIIA(D49S), enzymatically inactive mutant of recombinant rat GIIA (enzyme)”, the IC50 in assay [1] was 2200 nM.

B1: recombinant rat group IIA secreted phospholipase A2 (rGIIA) (enzyme, UniProt P14423 22-146, looked up)
chain: SLLEFGQMILFKTGKRADVSYGFYGCHCGVGGRGSPKDATDWCCVTHDCCYNRLEKRGCGTKFLTYKFSYRGGQISCSTNQDSCRKQLCQCDKAAAECFARNKKSYSLKYQFYPNKFCKGKTPSC
notes: also called rat GIIA; rGIIA-CHS (coupled to CH-Sepharose)
With B1, the IC50 in assay [2] amounted to 1200 nM.
